{"source": "patent US20180030537A1", "about": "“PUMA, A PRO-APOPTOTIC GENE, AS A NOVEL MOLECULAR BIOMARKER FOR TNFALPHA-INDUCED HUMAN ISLET DAMAGE” (CITY OF HOPE, priority 2010, published 2018)", "type_in_all_cases": "cell-based", "key": {"human whole blood": {"tested_on": "human whole blood", "experiment": "TNF-α stimulation of heparinized human whole blood, mRNA quantification", "details": "4 hours, FIG. 9", "procedure": "FIG. 9. Since isolated islets are not totally free of blood, PUMA and IL-8 expressed in human islets by TNF-α stimulation may derive from cells circulating in blood. However, PUMA is not induced by TNF-α in human whole blood. TNF-α (2, 20, 200 ng/ml) was mixed with heparinized whole blood and incubated at 37° C. for 4 hours. Various mRNA were quantified using the method descried previously (44). >20 ng/ml TNF-α induced both IL-8 and endogenous TNF mRNA but at lower levels. PUMA mRNA was not induced by TNF-α even with the highest dose (200 ng/mL) used with islet experiments.\nPancreatic tissues, including islets and acinar cells, are known to contain passenger leukocytes, which may be the source of the PUMA, IL-8 and TNF expression detected above."}, "human islets [1]": {"tested_on": "human islets", "experiment": "Western blot of PUMA and phospho-p65 in cultured human islets", "procedure": "FIG. 2A) 500 islet equivalents (IEQs) were cultured with or without TNF-α (5 and 50 ng/ml) and/or IFNγ (1000 U/ml) for 24 hours. Cell lysate was used for western blot to examine the PUMA expression in islets (*p<0.05, **p<0.005, n=3). […] (p=NS, n=3). FIG. 2C) Islets pre-incubated with NFκB inhibitor, BAY 11-7082, for 1 hour prior to TNF-α (50 ng/ml) or in combination with IFNγ (1000 U/ml) stimulation were examined by western blot to determine PUMA expression (n=3). FIG. 2D) Islets pre-incubated with NFκB inhibitor, BAY 11-7082, for 1 hour prior to TNF-α (50 ng/ml) stimulation were examined by western blot to determine PUMA expression (n=3). All data are presented as a mean±standard error. […] The up-regulation of PUMA by TNF-α was enhanced by the addition of IFNγ.\nFive hundred IEQ samples were harvested before and 24 hours after culture with or without TNF-α and/or IFNγ, washed twice with ice cold phosphate buffered saline (PBS), and stored at −80° C. until use. In some experiments, islets were pre-incubated with 10 μM NFκB inhibitor; BAY11-7082 for 1 hour before cytokine stimulation. Islet cell lysis and western blot was performed as previously described (49).\nTranslation of PUMA induced by TNF-α alone or in combination with IFN-γ into PUMA protein was examined. Islets were stimulated in culture for 16 hours with TNF-α alone or together with IFN-γ, lysed and analyzed by western blot. […]"}, "human islets [2]": {"tested_on": "human islets", "experiment": "Western blot of Caspase-8, Caspase-9 and Caspase-3 activation in human islets", "details": "TNF-α 5 and 50 ng/ml and/or IFNγ 1000 U/ml, 24 hours; FIG. 11A", "procedure": "FIGS. 11A-H. TNF-α induces apoptosis through mitochondrial pathway in human islets. Silencing PUMA prevented cell death induced by TNF-α and IFNγ stimulation in INS-1 cells. FIG. 11A) The activation of Caspase-8, Caspase-9 and Caspase-3 was examined in islets cultured with or without TNF-α (5 and 50 ng/ml) and/or IFNγ (1000 U/ml) for 24 hours by western blot. […] Paraffin sections from human islets cultured for 24 hours with or without TNF-α (50 ng/ml) (FIG. 11B) or the combination of TNF-α (50 ng/ml) and IFNγ (1000 U/ml) (FIG. 11C) were stained for TUNEL and insulin to identify apoptotic β cells, quantified using Laser Scanning Cytometry. The percentage of apoptotic β cells was calculated by dividing the TUNEL-insulin double-positive cell number by the total number of insulin-positive cells in each section (n=3, * p<0.05). β cell apoptosis was induced by TNF-α and IFNγ through activation of Caspase-9 and Caspase-3. β cell apoptosis was not detected by TUNEL staining when stimulated by TNF-α alone. However TNF induced islet apoptosis was confirmed by the increased expression of cleaved Caspase-9 and Caspase-3. PUMA siRNA or Control siRNA was transfected into INS-1 cells 48 hours before cytokine stimulation, and cultured an additional 48 hours before flow cytometric analysis. FIG. 11D) Percentage of dead cells assessed by % DAPI positive cells (*p<0.01, n=3). DAPI (4′,6-diamidino-2-phenylindole) is a fluorescent stain that binds to DNA. FIG. 11E) Mitochondrial membrane permeability is assessed by TMRE staining (**p<0.005, n=3). All data are presented as a mean±standard error. […] Representative data from 3 independent experiments. Silencing PUMA protected β cell from death and loss of mitochondrial membrane potential in INS-1 cells induced by TNF-α and IFNγ. […]\nTo examine whether islet apoptosis induced by such treatments is regulated by the extrinsic or intrinsic pathway, Caspase-8, Caspase-9 and Caspase-3 activation was determined in treated islets by western blot analysis. […]"}}}
{"substance": "TNF-α: recombinant human (or rat, for INS-1) TNF-α, R&D Systems; cytokine stimulus", "values": [{"measurement": "IL-8 mRNA in blood leukocytes", "setting": "human whole blood; 2, 20, 200 ng/ml", "value": "did express a high level of IL-8"}, {"measurement": "PUMA mRNA in blood leukocytes", "setting": "human whole blood; up to 200 ng/mL, 37° C.", "value": "did not induce PUMA"}, {"measurement": "PUMA protein expression (western blot)", "setting": "human islets [1]; TNF-α 50 ng/mL and/or IFN-γ 1000 U/mL, FIG. 2A", "value": "significantly increased"}, {"measurement": "phosphorylation of p65 protein (Ser536)", "setting": "human islets [1]; cytokine stimulated islets, FIG. 2B", "value": "Increased phosphorylation"}, {"measurement": "Caspase-3 activation (western blot)", "setting": "human islets [2]", "value": "induced"}, {"measurement": "Caspase-8 activation (western blot)", "setting": "human islets [2]", "value": "not activated"}, {"measurement": "Caspase-9 activation (western blot)", "setting": "human islets [2]", "value": "induced"}]}
